Article PMC9705858, “Anti-Endotoxin 9-Meric Peptide with Therapeutic Potential for the Treatment of Endotoxemia” (Journal of Microbiology and Biotechnology, 2020)
Converted amounts (≈) assume the structure as drawn.

Legend:
[1] = tested on: Escherichia coli (KCTC 1682); assay type: cell-based; conditions: E. coli KCTC 1682; 99% growth inhibition; 2 × 10^5 CFU/ml, 37°C, 16 h, A600
Text: The gram-negative bacterial strains Escherichia coli (KCTC 1682) and Acinetobacter baumannii (KCCM 40203) were purchased from the Korean Collection for Type Cultures (Korea) and the Korean Culture Center of Microorganisms (Korea), respectively. The MDR gram-negative strains Escherichia coli CCARM 1229, Escherichia coli CCARM 1238, Acinetobacter baumannii CCARM 12010, and Acinetobacter baumannii CCARM 12220 were obtained from the Culture Collection of Antibiotic-Resistant Microbes at Seoul Women’s University (South Korea).
The antibacterial properties of all peptides were determined by measuring the Minimum Inhibitory Concentration (MIC) as described previously. […] Two-fold serial dilutions of respective peptides were inoculated in 96-well plates in Mueller-Hinton medium, followed by the addition of bacterial suspensions (2 × 10^5 CFU/ml) at the log growth phase. The plates were incubated at 37°C for 16 h, and absorbance was read at 600 nm using a SpectraMAX microplate reader (Molecular Devices, USA).

[2] = tested on: sheep red blood cells; assay: Hemolysis of sheep red blood cells; assay type: cell-based; conditions: sheep red blood cells in vitro; 200 μM assigned when no detectable hemolysis at 100 μM
Procedure: (§1) The capacity of peptides in the lysis of erythrocytes was analyzed using sheep red blood cells (RBCs) as described previously. Cytotoxicity was further assessed in mouse macrophage RAW264.7 cells, which were cultured in Dulbecco’s modified Eagle medium (Thermo Fischer Scientific Inc., USA) enriched with fetal bovine serum (10%) and antibiotics (penicillin/streptomycin, 100 IU/ 100 mg/L) at 37°C in a CO2 incubator. The cytotoxic effect of Pro9-3 series peptides against RAW264.7 cells was then determined using WST-8 Cell Proliferation Assay Kit (Biomax Co. Ltd., Korea). The analysis was carried out according to our previously reported method.

[3] = tested on: RAW264.7 cells; assay: Cytotoxicity, WST-8 cell proliferation assay; assay type: cell-based, mouse; conditions: 100 μM peptide, 24 h, mean of three experiments
Procedure: as §1
Fig. 1 Cytotoxicities of peptides. (A) Dose-dependent hemolytic activities in sheep red blood cell (sRBC) caused by peptides. (B) Dose-response cytotoxicities of the Pro9-3 and its analogs against RAW264.7 cells for 24 h. Melittin was used as a positive control. The values are expressed as the mean ± SEM of three independent experiments: *p < 0.05; **p < 0.01; ***p < 0.001; ns, not significant.

Compound: CC[C@H](C)[C@H](NC(=O)CN)C(=O)NCC(=O)N[C@@H](C)C(=O)N[C@H](C(=O)N[C@@H](CC(C)C)C(=O)N[C@@H](CCCCN)C(=O)N[C@H](C(=O)N[C@@H](CC(C)C)C(=O)N[C@H](C(=O)N[C@H](C(=O)NCC(=O)N[C@@H](CC(C)C)C(=O)N1CCC[C@H]1C(=O)N[C@@H](C)C(=O)N[C@@H](CC(C)C)C(=O)N[C@H](C(=O)N[C@@H](CO)C(=O)N[C@@H](Cc1c[nH]c2ccccc12)C(=O)N[C@H](C(=O)N[C@@H](CCCCN)C(=O)N[C@@H](CCCNC(=N)N)C(=O)N[C@@H](CCCCN)C(=O)N[C@@H](CCCNC(=N)N)C(=O)N[C@@H](CCC(N)=O)C(=O)N[C@@H](CCC(N)=O)C(N)=O)[C@@H](C)CC)[C@@H](C)CC)[C@@H](C)O)[C@@H](C)O)C(C)C)C(C)C [Melittin, reference compound]
- Minimal inhibitory concentration (MIC) [1]: 8 µM (≈ 22.8 µg/mL)
- HC10 (peptide concentration which induces 10% hemolysis) [2]: 0.8 µM
- Survival of RAW264.7 macrophage cells [3]: 13.7%
